Measurements published in article PMC12711630 (Cell Reports. Physical Science, 2025).

Sequences of proteins named here, by UniProt entry; tags and fusion partners are left off. Residues count along the entry.
UniProt P36544, 23-502 limits assumed: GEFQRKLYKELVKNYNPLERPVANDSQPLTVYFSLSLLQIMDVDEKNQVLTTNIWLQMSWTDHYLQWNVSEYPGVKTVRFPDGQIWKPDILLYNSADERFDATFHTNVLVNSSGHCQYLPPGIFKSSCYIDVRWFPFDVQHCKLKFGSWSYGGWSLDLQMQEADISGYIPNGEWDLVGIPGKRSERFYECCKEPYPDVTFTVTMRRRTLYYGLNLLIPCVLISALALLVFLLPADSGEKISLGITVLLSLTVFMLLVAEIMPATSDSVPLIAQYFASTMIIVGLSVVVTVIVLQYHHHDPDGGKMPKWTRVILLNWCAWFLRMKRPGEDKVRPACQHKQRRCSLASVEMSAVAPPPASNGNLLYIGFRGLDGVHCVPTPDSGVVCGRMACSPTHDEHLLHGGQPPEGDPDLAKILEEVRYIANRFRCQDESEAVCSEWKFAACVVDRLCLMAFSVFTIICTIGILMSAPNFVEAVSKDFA

Biological target: human α7 nAChR (Homo sapiens, UniProt P36544)
Test: [125I]α-Bgtx radioligand binding (saturation and competition), membranes of transfected SH-SY5Y cells
Details: ratio relative to α4β2

SMILES | Ki ratio α7/α4β2
c1ccc2cc3c(cc2c1)C1CNCC3C1 [C2 varenicline 4] | 93
c1ccc2nc3c(nc2c1)C1CNCC3C1 [Isovarenicline 5] | 23
